In PubChem BioAssay AID435022 (Sanford-Burnham Center for Chemical Genomics, 2010):
The entries are a selection whose mix differs from that of the whole data set. Calls of active or inactive are those of the source. Rule as the data show it: active = inhibition above about 35%; inactive = the rest.

Assay: lowers stimulated NF-kB luciferase signal in 697 B cells – cell-based, luminescence, uHTS, B-cell NF-kB inhibitor project, primary screen (AID 435022)
Settings: 697 B-cell NF-kB luciferase reporter, PMA/ionomycin, 16 h; at 4 µM; stronger effect = higher value
For `Cc1ccc(OP(=O)(Nc2nccs2)Oc2ccc(C)cc2)cc1`, the inhibition was inactive: -8.5%. With `CN1CCCC(OC(=O)C(c2ccccc2)c2ccccc2)C1` (stereo unspecified) the inhibition was inactive: 1.47%. With `Clc1ccc(Cl)c(NC2=NCC(CBr)S2)c1` (stereo unspecified) the inhibition was inactive: 6.06%. For `O=[N+]([O-])c1cc([N+](=O)[O-])c(CCN2CCOCC2)c([N+](=O)[O-])c1`, the inhibition was inactive: 4.42%. With `CCN(N=Nc1nonc1N)c1nonc1N` the inhibition was inactive: 20.3%. For `CC(=O)Nc1ccc([As](=O)(O)O)cc1`, the inhibition was inactive: 5.45%. With `O=C(O)c1ccccc1[As](=O)(O)O` the inhibition was inactive: -11.7%. For `O=P(Nc1nc2ccc(Cl)cc2s1)(c1ccccc1)c1ccccc1`, the inhibition was inactive: -4.95%. For `Cc1cc(SC(NC(=O)c2ccc(F)cc2)C(Cl)(Cl)Cl)ncn1` (stereo unspecified), the inhibition was inactive: 6.13%. With `CCOP(=O)(Nc1ccccc1)OCC` the inhibition was inactive: -15.3%. With `CN(C(=O)Cc1ccc(Cl)c(Cl)c1)[C@H]1CCCC[C@@H]1N1CCCC1` the inhibition was inactive: 6.35%. In the case of `Cc1ccc(NP(=O)(Oc2ccccc2F)Oc2ccccc2F)nc1`, the inhibition is reported as inactive: -2.95%. With `COC(=O)c1cc2c(s1)N=C(c1ccccc1)N(C)P2(=O)N1CCOCC1` (stereo unspecified) the inhibition was inactive: 14.7%. With `Cc1ccc(OP(=O)(Nc2ccccn2)Oc2ccc(C)cc2)cc1` the inhibition was inactive: 9.06%. In the case of `CC(=O)NC(SC(=S)N(CC(C)C)CC(C)C)C(Cl)(Cl)Cl` (stereo unspecified), the inhibition is reported as inactive: -71.5%. With `O=C(OC1CN2CCC1CC2)c1ccccc1` (stereo unspecified) the inhibition was inactive: -8.68%. For `CCC(=O)N1C2C3N(C(=O)CC)C1C1N(C(=O)CC)C(C(N1C(=O)CC)N3C(=O)CC)N2C(=O)CC`, the inhibition was inactive: -10.4%. For `CC(NC(=O)COC(=O)C(O)(c1ccccc1)c1ccccc1)c1ccccc1` (stereo unspecified), the inhibition was inactive: -2.25%. In the case of `Cc1ccccc1OP(=O)(Nc1ccccn1)Oc1ccccc1C`, the inhibition is reported as inactive: 1.2%. With `CN(C)C(=O)Oc1noc2ccccc12` the inhibition was inactive: 5.18%. In the case of `O=C(NC1CCS(=O)(=O)C1)NP(=S)(Oc1ccccc1)Oc1ccccc1` (stereo unspecified), the inhibition is reported as inactive: 17.6%. For `CCNC(=S)/N=C(\N)N[N+](=O)[O-]`, the inhibition was inactive: 12.3%. In the case of `c1ccc(-c2nn[nH]n2)c(-c2nn[nH]n2)c1`, the inhibition is reported as inactive: -5.03%. For `CCOC(=O)NC(Sc1ccccc1)C(Cl)(Cl)Cl` (stereo unspecified), the inhibition was inactive: 0.442%. In the case of `Cc1ccc(NP(=O)(Oc2cccc(C)c2)Oc2cccc(C)c2)nc1`, the inhibition is reported as inactive: -10.9%. With `CC(=O)c1ccc(N2CC2c2ccncc2)cc1` (stereo unspecified) the inhibition was inactive: 9.26%. With `Cc1ccccc1CN(C)C(=O)COC(=O)C(O)(c1ccccc1)c1ccccc1` the inhibition was inactive: 15%. For `C[C@H]1OP(=O)(Oc2ccccc2)C[C@@H]2O[C@@H]21` (stereo partly specified), the inhibition was inactive: 9.17%. In the case of `C[C@@H]1C=CCP(=O)(Oc2ccccc2)O1` (stereo partly specified), the inhibition is reported as inactive: 11.2%. For `CC(=O)Nc1ccc([As](=O)(O)O)c(O)c1`, the inhibition was inactive: 2.53%. In the case of `CC(=O)Nc1ccc(Oc2c([N+](=O)[O-])cc([N+](=O)[O-])cc2[N+](=O)[O-])cc1`, the inhibition is reported as inactive: 15%. With `O=P1(Nc2nc3ccc(Cl)cc3s2)COc2ccccc2O1` (stereo unspecified) the inhibition was inactive: 1.63%. For `CCOc1ccc(C2=NCC(CBr)S2)cc1` (stereo unspecified), the inhibition was inactive: 8.95%. In the case of `CC(C)(C)C(=O)NC(Sc1ccccc1)C(Cl)(Cl)Cl` (stereo unspecified), the inhibition is reported as inactive: 7.58%. With `O=P(Nc1nccs1)(c1ccccc1)c1ccccc1` the inhibition was inactive: -3.43%. For `CC(C)C(=O)NC(Sc1ccccc1)C(Cl)(Cl)Cl` (stereo unspecified), the inhibition was inactive: -10.5%. For `c1nnnn1CCn1cnnn1`, the inhibition was inactive: -20.8%. In the case of `O=[N+]([O-])c1ncn(CCn2cnc([N+](=O)[O-])n2)n1`, the inhibition is reported as inactive: 17.4%. With `O=[As](O)(c1ccccc1)c1ccc(O)cc1` the inhibition was inactive: 15.4%. For `C(Cc1nn[nH]n1)Cc1nn[nH]n1`, the inhibition was inactive: 19.4%. With `Nc1ccc([As](=O)(O)c2ccc([N+](=O)[O-])cc2)cc1` the inhibition was inactive: -4.43%. With `O=C(OC1CN2CCC1CC2)c1cccc(Cl)c1` (stereo unspecified) the inhibition was inactive: 17.9%. For `CN(C)C1(CNC(=O)c2ccc(Cl)c(S(N)(=O)=O)c2)CCCCC1`, the inhibition was inactive: 16.1%. With `O=P(Nc1ccccn1)(c1ccc(Br)cc1)c1ccc(Br)cc1` the inhibition was inactive: 18.2%. With `O=P(Nc1nc2ccccc2s1)(c1ccccc1)c1ccccc1` the inhibition was inactive: -1.69%. With `C[C@H]1OP(=O)(Oc2ccccc2)[C@H](O)[C@H](O)[C@H]1N=[N+]=[N-]` (stereo partly specified) the inhibition was inactive: 5.4%.
